Assays:
[1] = Emulsion formation by aromatic peptide amphiphiles (fluorescence microscopy, FITC label); format: physicochemical
Method: (§1) (the volume ratio of buffer solution to chloroform is altered from 1:9, 3:7, 5:5, 7:3, to 9:1, total volume was always 1 mL), after hand-shaking for 5 seconds emulsions form in vials. For SEM, IR, stability, average particle size, critical emulsion concentration and demulsification measurements, the volume ratio of buffer solution to chloroform was fixed at 7:3. The concentration of all aromatic peptide amphiphiles studied (Fmoc-YA, Fmoc-YS, Pyr-YL, Fmoc-FF and Fmoc-FFF) was 10 mM, except for in the determination of the critical emulsion concentration (0.1-10 mM) and demulsification measurements (2 mM).

[2] = Absorption of Fmoc-YL at the chloroform/water interface (UV-Vis); format: physicochemical; conditions: 50:50 water/chloroform system; based on UV analysis
Method: (§2) The absorption of Fmoc-YL at the chloroform/water interfaces could be quantified by UV-Vis spectra by measuring the concentration in each phase and with the remainder absorbed at the interface. Based on UV analysis, in a 50:50 water/chloroform system, the amount of Fmoc-YL absorbed at the chloroform/water interface could be calculated as 1.9 mmol·m^−2.
(§3) The structures of Fmoc-YL microcapsules were determined by Hitachi S800 field emission scanning electron microscope (SEM) at an accelerating voltage of 10 keV. The transfer of Fmoc-YL, YA and YS were analyzed by UV-Vis spectroscopy (JAS.C.O V-660 spectrophotometer). The formation of Fmoc-YL gels and labeling of ThT were carried out by Fluorescence spectroscopy (JAS.C.O FP-6500 spectrofluorometer). High resolution mass spectra (HRMS) were recorded on a Thermo Electron Exactive. 400.1 (1H) NMR spectra were recorded on Brucker Avance 400 spectrometer at room temperature using perdeuterated solvents as internal standards. The emulsion droplets were characterized by fluorescence microscopy. The devices were mounted on an inverted microscope (AXIO Observer A1, Zeiss) and images were acquired using a EMCCD LucaR camera (Andor Technologies). Images (using brightfield and fluorescence microscopy) were acquired using Zeiss ×20 dry objective and the appropriate filter set for the fluorophore being imaged. Image was analyzed using ImageJ.

[3] = Partitioning of peptides between water, chloroform and the water/chloroform interface (UV-Vis); format: physicochemical; conditions: water/chloroform biphasic system
Method: Initial interest in studying aromatic peptide amphiphiles at the organic/aqueous interface started from the observation that aromatic peptide Fmoc-YL forms a gel in both phosphate buffer solution (10 mM) and chloroform (25 mM). […] By adding different volumes of chloroform to 10 mM Fmoc-YL buffer solution at 80° C. […] In the images shown, the milky layers are emulsions and the transparent layers above and below are the aqueous and chloroform phase, respectively. UV-Vis was used to determine the amount of Fmoc-YL that remained in water phase and transferred to chloroform. Fluorescein isothiocyanate (FITC) was used to label the aqueous phase in the emulsion layers for imaging by fluorescence microscopy.
as §2, §3

[4] = Gel formation in buffer solution and chloroform; format: physicochemical
[5] = Enzymatically triggered emulsions: stability in chloroform/water biphasic system; format: physicochemical; conditions: Fmoc-YL formed by alkaline phosphatase in chloroform/water biphasic system
Method: When chloroform is added in a 1:1 volume ratio to the 5 mM Fmoc-YpL buffer solution and hand-shaken for 5 seconds, an emulsion is formed. Fmoc-YpL follows a surfactant-like behaviour, visible by the formed foam, where the amphiphile absorbs to the oil/water interface. However, the structure of Fmoc-YpL implies an inability to effectively stabilize the interface and demulsification occurs after one hour (FIG. 4a). […] Enzyme-triggered self-assembly allows temporal control over emulsification, achieved by adding alkaline phosphatase to the Fmoc-YpL biphasic system (FIG. 11a).
Fmoc-YpL was prepared in the same way as stated before but in a 5 mM concentration to avoid formation of hydrogels. After 24 hours from the Fmoc-YpL has been prepared in buffer and the alkaline phosphatase added (to assure full dephosphorylation), 500 μL chloroform were added to 500 μL samples and hand-shaken for 5 seconds to make a 50:50 chloroform-in-water emulsion.

[6] = Stability of chloroform-in-water emulsions (time, heat, salts) versus SDS
Method: The top images show freshly prepared emulsions and the bottom images show emulsions incubated for 2 weeks. […] The top images show freshly prepared emulsions and the bottom images show emulsions heated at 60° C. for 3 hours. […] The top images show freshly prepared emulsions and the bottom images show emulsions incubated for 24 hours.
as §1

thermolysin = biological target: T1, thermolysin (Bacillus thermoproteolyticus, UniProt P00800); test: Enzymatic demulsification of emulsions by thermolysin; format: biochemical; conditions: after 10 minutes, at 50% conversion
T1 sequence (P00800 233-548): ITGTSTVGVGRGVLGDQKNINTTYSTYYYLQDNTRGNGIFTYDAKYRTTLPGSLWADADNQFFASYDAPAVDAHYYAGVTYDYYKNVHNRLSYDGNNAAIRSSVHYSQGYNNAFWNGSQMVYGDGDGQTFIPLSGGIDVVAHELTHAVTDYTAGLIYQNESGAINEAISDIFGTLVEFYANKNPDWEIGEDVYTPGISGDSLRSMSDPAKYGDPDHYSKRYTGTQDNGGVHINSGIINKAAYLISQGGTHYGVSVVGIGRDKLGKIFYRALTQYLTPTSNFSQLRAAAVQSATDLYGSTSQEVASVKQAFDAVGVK
Method: Scale bar is 50 μm. (b) Histogram of the size distribution of adding 1 mg·mL^−1 thermolysin phosphate buffer solution into chloroform-in-water emulsion droplets stabilized with 2 mmol·L^−1 Fmoc-YL buffer solution after 0, 20, 40, 60 seconds. (c) Optical photographs of vials in which emulsions formed (left) and demulsified (right) in addition of thermolysin. Emulsions were stabilized with 2 mmol·L^−1 Fmoc-YL buffer solution in absence (left) and presence (right) of 1 mg·mL^−1 thermolysin after 10 min.
Another vital advantage of using peptide self-assembly to stabilize the emulsion systems is the ability to digest the stabilizing film using a suitable enzyme. Proteases, the enzymes that cleave peptide bonds cause disassembly of amphiphiles.

With Fmoc-tyrosine-leucine [Fmoc-YL] the “type of emulsion formed” value ([1]; chloroform / phosphate buffer pH 8, 10 mM peptide) was “chloroform-in-water emulsions form”, the “emulsions with other organic media” value ([1]; hexadecane, mineral oil instead of chloroform) was “can also stabilize both hexadecane-in-water and mineral oil-in-water emulsions” and the “amount absorbed at the chloroform/water interface” value [2] was 1.9 mmol·m^−2. For the same substance, the “Remain in water (%)” value [3] was 14.01%, the “Transfer to chloroform (%)” value [3] was 3.45% and the “Transfer to interface (%)” value [3] was 82.53%. The “gel formation in phosphate buffer solution” value ([4]; Fmoc-YL 10 mM) was “forms a gel”, the “gel formation in chloroform” value ([4]; Fmoc-YL 25 mM, Fmoc-YA 30 mM) was “forms a gel” and the emulsion stability [5] was “stable for months”. For the same substance, the “long-term stability of emulsions” value ([6]; 10 mM in buffer, chloroform, manual agitation 5 seconds) was “stable for months”, the “emulsion state after 24 h in salt solution” value ([6]; 100 mM phosphate, chloride and thiocyanate solution, 10 mM) was “not influenced by the salt effect” and the “emulsion state after exposure to 60° C. for 3 h” value ([6]; chloroform-in-water, 10 mM) was “no visible change”. The “emulsion state after two weeks at room temperature” value ([6]; chloroform-in-water, 10 mM) was “still stable” and the “emulsion state after thermolysin” value (thermolysin) was “complete demulsification and phase separation”.

— patent US20170188618A1, “STABLE EMULSIONS FROM DIPEPTIDE DERIVATIVES” (UNIVERSITY OF STRATHCLYDE, priority 2014, published 2017)
